{"sequences": {"note": "The chains behind the UniProt entries cited, without tags or fusion partners. Where a name states a change or a piece, a line headed by the entry shows the natural chain unless it says otherwise.", "UniProt P17787": "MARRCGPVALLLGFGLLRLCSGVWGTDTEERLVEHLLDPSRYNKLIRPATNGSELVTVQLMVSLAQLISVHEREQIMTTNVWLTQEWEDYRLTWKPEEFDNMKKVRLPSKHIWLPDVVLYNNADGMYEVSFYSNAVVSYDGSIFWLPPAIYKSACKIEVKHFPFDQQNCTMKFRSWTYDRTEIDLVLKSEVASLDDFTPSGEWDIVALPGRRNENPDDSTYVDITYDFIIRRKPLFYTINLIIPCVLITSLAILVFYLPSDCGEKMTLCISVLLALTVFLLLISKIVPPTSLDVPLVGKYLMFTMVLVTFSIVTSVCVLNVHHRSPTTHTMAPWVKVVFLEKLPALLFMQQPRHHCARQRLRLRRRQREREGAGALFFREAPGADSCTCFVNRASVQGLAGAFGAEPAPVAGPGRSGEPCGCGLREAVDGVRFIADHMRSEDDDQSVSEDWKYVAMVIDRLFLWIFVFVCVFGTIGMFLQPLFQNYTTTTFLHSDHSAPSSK", "UniProt P43681": "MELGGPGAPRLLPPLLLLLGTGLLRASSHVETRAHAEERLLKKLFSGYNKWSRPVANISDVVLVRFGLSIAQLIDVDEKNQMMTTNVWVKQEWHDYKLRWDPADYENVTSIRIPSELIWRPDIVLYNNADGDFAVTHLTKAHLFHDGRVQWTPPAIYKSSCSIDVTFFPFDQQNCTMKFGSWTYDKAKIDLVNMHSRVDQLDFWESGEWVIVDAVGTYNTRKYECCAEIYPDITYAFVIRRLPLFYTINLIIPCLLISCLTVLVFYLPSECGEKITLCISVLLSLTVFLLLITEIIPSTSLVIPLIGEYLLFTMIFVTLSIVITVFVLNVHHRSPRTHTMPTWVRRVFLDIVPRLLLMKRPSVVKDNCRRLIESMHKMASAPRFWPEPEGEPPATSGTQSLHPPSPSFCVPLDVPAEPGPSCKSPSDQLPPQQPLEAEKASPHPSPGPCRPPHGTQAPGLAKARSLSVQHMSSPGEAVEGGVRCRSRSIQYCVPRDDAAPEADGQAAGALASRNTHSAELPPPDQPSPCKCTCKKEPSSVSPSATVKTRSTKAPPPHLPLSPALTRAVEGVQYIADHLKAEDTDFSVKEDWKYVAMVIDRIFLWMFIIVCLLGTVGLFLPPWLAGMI"}, "source": "ChEMBL document CHEMBL3085723", "about": "“Design, synthesis and discovery of picomolar selective α4β2 nicotinic acetylcholine receptor ligands” (J Med Chem, 2013)", "target": "Neuronal acetylcholine receptor; alpha4/beta2 (Homo sapiens, UniProt P17787+P43681)", "test": "Agonist activity at human alpha4beta2 nAChR assessed as stimulation of [86Rb+] efflux after 2 mins by cell-based liquid scintillation counting relative to nicotine", "how_it_was_run": "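Human α4β2 stably expressed in YXα4β2H1 cells, grown 18–24 h to 85–95% confluence and loaded with ⁸⁶Rb⁺ (2 μCi/mL) for 4 h at 37 °C. Cells exposed 2 min to eight ligand concentrations in HEPES buffer, pH 7.4. Efflux counted as % of total loading (medium plus NaOH lysate), net of basal.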", "data": [{"smiles": "c1cnc2cc3c(cc2n1)[C@@H]1CNC[C@H]3C1", "note": "[VARENICLINE]", "values": [{"measurement": "Emax", "result": 45, "unit": "%"}]}]}
